Earlier results in patent publication US20210137911A1, “NOVEL CHRONOTHERAPY BASED ON CIRCADIAN RHYTHMS” (THE TRUSTEES OF THE UNIVERSITY OF PENNSYLVANIA, priority 2014, published 2021).

Settings: in vivo; cited from earlier work

## CN1CC[C@]23c4c5ccc(O)c4O[C@H]2C(=O)CC[C@H]3[C@H]1C5 [Hydromorphone]
  ½ Life: 2.6 h
